Where “and” joins values, the source holds several entries; their conditions need not be identical. Equal entries are not always repeated.
Columns and labels:
[1] = tested on: brain Aβ (Aβ40, Aβ42); assay: Brain Aβ40, Aβ42 and total Aβ levels by ELISA of DEA brain extracts of ovariectomized guinea pigs; type: in vivo, guinea pig
Description: Maintenance of animals and treatment. Ovariectomized (ovx) and intact female guinea pigs were purchased from Hilltop Laboratories (Scottsdale, Pa.); ovx animals were 8 weeks old at the time of surgery. […] Throughout the study, the animals were fed ad libitum in a controlled lighting environment (12 h/12 h light/dark cycles). After the surgery, the ovx guinea pigs were put on a casein-based, soy-free diet (Purina, Richmond, Ind.) to exclude the presence of phytosteroids in the diet. The intact animals also began receiving soy-free food at approximately 8 weeks of age. […] Prior to the beginning of the treatment, all animals were weighed. The average daily food intake for each animal using this particular diet was determined in a preliminary experiment.
Tissue collection. At the end of the treatment, all animals were sacrificed by decapitation. […] The brains were immediately removed, and the cerebellum was dissected away from each brain. The rest of the brain was divided into hemispheres which were snap-frozen and stored at −80° C.
Preparation of Brain Extracts. Soluble Proteins from the Brains were Recovered using a modification of an established protocol (Savage et al., J. Neurosci., 1998, 18:1743-52). Briefly, the hemispheres were homogenized in 0.2% diethylamine (DEA)/50 mM NaCl at 1:10 w/v ratio, with 5-6 strokes of a Dounce homogenizer. The DEA homogenate was centrifuged for 90 min at 100,000 g. The DEA supernatants were neutralized to pH about 8.0 by addition of 1/10th vol. of 0.5M Tris-Cl pH 6.8, then aliquoted and snap-frozen. The pellets of the DEA extracts were solubilized in 2% SDS/PBS containing a cocktail of protease inhibitors (“Complete”, Boehringer Mannheim, Germany), sonicated and boiled. The protein concentrations of the DEA and SDS supernatants were determined using the BCA reagent assay kit (Pierce, Rockford, Ill.).
Detection of sAPPα, flAPP, Aβ40 and Aβ42. The amino acid sequence of APP from guinea pigs is 97% identical to the human APP homologue and the Aβ region is 100% identical to human Aβ (Beck et al., Biochim. Biophys. Acta, 1997, 1351:17-21), thus enabling use of well characterized Aβ antibodies to study the effects of estrogen on APP metabolism.
The levels of Aβ40 and Aβ42 were determined by Aβ40- and Aβ42-specific ELISA assays (Mehta et al, Neurosci. Lett., 1998, 241:13-16). For each animal, the levels of Aβ40, Aβ42, and total Aβ were standardized to brain tissue weight and expressed as ng (Aβ)/g (brain tissue, wet weight). In all experiments, animals were coded prior to tissue collection, and the treatment status of each animal was unknown to the investigators at the time of the assays.

[2] = tested on: sAPPα; assay: Brain sAPPα levels by quantitative Western blotting (6E10), standardized to flAPP; type: in vivo, guinea pig
Description: Soluble Proteins from the Brains were Recovered using a modification of an established protocol (Savage et al., J. […] The DEA homogenate was centrifuged for 90 min at 100,000 g. […] The protein concentrations of the DEA and SDS supernatants were determined using the BCA reagent assay kit (Pierce, Rockford, Ill.). Soluble APPα (sAPPα) was detected by Western blotting of proteins from the DEA extracts using the monoclonal antibody 6E10 (Senetek, St. Louis, Mo.), which recognizes […]β region. The DEA extraction recovers soluble and not membrane embedded proteins, precluding the interference of flAPP with the detection of sAPPα (Savage et al., supra). […] Visualization was performed using enhanced chemiluminescence. For quantitation, multiple exposures of the immunoblots were scanned using the ScanAnalysis software. […] Full-length APP levels were determined by immunoblotting of SDS extracts (50 μg/lane) using antibody 369 (which recognizes epitopes in the cytoplasmic tail of APP, residues 645-695; Buxbaum et al., Proc. Natl. Acad. Sci. […] Again, the samples were analyzed in triplicate, and densitometric analysis of multiple exposures of the immunoblots was performed. […] The levels of Aβ40, Aβ42, and sAPPα in brain tissue were determined using Aβ40- and Aβ42-specific ELISA assays and quantitative immunoblotting, respectively, as described in Methods.

[3] = ovx + low-dose E2, 1 mg E2/kg BW/day per os, 10 days

SMILES: C[C@]12CC[C@@H]3c4ccc(O)cc4CC[C@H]3[C@@H]1CC[C@@H]2O [E2, 17β-estradiol]
- effect on Aβ42/Aβ40 ratio on average ([1]; 10-day E2 treatment, both low and high-dose): did not alter
- Aβ42/Aβ40 ratio median ([1]; ovx + high-dose E2, 5 mg E2/kg BW/day per os, 10 days): 0.140
- Aβ42/Aβ40 ratio mean +/− SEM ([1]; ovx + high-dose E2, 5 mg E2/kg BW/day per os, 10 days, ovx mean 0.150): 0.141 and 0.141 +/− 0.013
- Aβ42/Aβ40 ratio mean +/− SEM [1, 3]: 0.141 +/− 0.01
- Aβ42/Aβ40 ratio median [1, 3]: 0.146
- effect of high-dose E2 on Aβ species relative to low-dose E2 ([1]; second experiment, 5 mg/kg BW/day, 10 days): did not cause any additional decrease
- levels of sAPPα, ovx group versus ovx+E2 group ([2]; first experiment, 1 mg E2/kg BW/day per os, 10 days, p=0.5): indistinguishable
- levels of sAPPα after E2 replacement ([2]; second experiment, ovx guinea pigs, low and high-dose E2): unaffected
